Patent US20250051344A1, “BIFUNCTIONAL SELECTIVE DEGRADERS OF SMARCA2 AND THERAPEUTIC USES THEREOF” (Nurix Therapeutics, Inc., priority 2023, published 2025)

The chains behind the UniProt entries cited, without tags or fusion partners.
UniProt P51531, whole entry: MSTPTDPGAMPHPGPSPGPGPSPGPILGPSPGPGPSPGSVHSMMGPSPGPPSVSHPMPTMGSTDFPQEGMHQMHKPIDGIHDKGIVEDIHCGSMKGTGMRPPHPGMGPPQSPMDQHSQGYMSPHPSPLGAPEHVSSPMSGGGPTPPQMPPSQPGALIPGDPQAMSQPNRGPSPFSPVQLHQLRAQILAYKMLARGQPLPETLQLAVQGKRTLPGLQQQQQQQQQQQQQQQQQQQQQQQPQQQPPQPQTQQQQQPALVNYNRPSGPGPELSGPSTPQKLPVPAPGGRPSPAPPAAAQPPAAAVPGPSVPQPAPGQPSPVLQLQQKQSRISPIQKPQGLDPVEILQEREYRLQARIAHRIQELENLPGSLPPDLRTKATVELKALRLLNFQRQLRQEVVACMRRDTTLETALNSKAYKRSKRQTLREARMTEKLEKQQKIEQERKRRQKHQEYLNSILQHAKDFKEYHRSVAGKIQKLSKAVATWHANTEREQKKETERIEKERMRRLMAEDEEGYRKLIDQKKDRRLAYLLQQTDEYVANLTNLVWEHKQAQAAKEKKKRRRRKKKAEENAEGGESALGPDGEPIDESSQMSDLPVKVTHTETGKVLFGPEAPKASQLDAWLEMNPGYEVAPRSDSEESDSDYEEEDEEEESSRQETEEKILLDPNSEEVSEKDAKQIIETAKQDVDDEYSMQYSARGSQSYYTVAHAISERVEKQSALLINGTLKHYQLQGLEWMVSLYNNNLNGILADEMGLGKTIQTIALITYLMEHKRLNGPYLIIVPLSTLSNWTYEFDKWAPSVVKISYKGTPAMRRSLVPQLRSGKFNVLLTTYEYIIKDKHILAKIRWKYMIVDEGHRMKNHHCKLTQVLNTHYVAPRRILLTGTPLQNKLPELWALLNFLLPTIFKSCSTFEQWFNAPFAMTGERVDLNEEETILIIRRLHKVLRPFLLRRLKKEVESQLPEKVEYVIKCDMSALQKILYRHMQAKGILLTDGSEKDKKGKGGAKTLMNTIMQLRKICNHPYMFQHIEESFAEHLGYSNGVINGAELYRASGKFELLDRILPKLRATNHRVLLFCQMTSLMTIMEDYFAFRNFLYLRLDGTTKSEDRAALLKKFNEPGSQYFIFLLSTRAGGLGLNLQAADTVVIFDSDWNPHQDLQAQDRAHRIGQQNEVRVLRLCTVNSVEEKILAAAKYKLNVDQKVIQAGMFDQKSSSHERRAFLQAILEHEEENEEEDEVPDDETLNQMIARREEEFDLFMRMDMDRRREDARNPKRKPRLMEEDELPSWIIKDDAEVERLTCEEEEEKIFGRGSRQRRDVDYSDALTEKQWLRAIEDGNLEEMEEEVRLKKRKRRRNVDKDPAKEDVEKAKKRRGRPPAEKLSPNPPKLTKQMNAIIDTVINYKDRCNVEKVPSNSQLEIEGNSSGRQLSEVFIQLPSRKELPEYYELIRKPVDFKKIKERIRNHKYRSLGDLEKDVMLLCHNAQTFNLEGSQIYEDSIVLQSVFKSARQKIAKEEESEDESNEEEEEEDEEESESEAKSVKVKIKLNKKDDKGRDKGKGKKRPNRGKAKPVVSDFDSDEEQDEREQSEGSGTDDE
UniProt P51532, whole entry: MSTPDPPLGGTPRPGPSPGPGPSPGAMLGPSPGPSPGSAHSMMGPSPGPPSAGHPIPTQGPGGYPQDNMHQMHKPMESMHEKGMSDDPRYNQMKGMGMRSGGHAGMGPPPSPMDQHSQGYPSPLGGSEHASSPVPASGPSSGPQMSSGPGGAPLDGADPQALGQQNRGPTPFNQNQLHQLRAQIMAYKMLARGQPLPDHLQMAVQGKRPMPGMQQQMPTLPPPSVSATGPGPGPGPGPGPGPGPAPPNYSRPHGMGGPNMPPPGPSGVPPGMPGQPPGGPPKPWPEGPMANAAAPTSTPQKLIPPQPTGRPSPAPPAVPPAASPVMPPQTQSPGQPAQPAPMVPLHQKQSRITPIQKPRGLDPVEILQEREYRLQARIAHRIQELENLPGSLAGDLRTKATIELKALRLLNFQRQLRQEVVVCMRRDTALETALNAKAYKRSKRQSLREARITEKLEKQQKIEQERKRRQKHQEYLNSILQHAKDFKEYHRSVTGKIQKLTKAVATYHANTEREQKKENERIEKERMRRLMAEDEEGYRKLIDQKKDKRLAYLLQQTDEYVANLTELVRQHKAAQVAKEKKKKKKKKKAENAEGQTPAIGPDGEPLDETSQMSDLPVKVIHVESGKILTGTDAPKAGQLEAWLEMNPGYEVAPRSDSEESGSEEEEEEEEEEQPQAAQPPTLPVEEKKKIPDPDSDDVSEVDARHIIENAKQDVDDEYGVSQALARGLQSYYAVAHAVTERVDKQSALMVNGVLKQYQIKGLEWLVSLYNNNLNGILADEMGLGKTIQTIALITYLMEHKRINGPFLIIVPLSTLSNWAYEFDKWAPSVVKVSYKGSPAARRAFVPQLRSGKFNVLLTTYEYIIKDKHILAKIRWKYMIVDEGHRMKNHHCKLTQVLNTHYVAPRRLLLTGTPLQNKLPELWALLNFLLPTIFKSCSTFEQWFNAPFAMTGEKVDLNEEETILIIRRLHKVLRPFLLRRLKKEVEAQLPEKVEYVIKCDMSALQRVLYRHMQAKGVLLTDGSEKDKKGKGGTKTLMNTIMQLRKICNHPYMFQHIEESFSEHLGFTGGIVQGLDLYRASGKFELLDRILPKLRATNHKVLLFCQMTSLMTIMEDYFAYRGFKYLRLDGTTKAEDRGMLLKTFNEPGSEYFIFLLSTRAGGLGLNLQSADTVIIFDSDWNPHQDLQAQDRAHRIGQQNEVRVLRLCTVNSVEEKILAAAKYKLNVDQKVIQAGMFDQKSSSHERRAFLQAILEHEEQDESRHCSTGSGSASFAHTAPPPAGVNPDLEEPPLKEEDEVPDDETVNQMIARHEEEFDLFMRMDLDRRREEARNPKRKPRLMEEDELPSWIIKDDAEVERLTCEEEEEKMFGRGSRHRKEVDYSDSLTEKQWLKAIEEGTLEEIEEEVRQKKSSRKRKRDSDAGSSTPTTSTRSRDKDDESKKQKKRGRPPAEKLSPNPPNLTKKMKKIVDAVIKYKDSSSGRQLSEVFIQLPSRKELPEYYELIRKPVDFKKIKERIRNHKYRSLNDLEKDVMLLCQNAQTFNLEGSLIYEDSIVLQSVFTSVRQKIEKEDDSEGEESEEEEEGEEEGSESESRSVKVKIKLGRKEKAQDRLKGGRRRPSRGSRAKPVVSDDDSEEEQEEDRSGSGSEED

Tests used:
SMARCA2 = SMARCA2 (Homo sapiens, UniProt P51531); assay: SMARCA2 Cellular Degradation Assay (Western blot analysis on Jess platform); conditions: for Fold Selectivity SMARCA4/2: ratio DC50 SMARCA4 / DC50 SMARCA2
Procedure: SMARCA2 Cellular Degradation Assay
Western Blot Analysis for SMARCA2 Degradation
Frozen cell pellets were thawed on ice and resuspended in RIPA lysis buffer (Millipore, Cat. No. 20-188) supplemented with 0.2% SDS (Fisher Scientific, Cat. No. 24730020), 200 mM β-glycerophosphate (Alfa Aesar, Cat. No. J62121), 500 mM NaF (Rigaku, Cat. No. 1008046), protease inhibitor (1 tablet per 10 mL, Sigma, Cat. No. 11836170001), 250 U/μL benzonase (Millipore, Cat. No. 71206), 200 mM sodium orthovanadate (FivePhoton, Cat. No. ActVO-4), and 100 mM PMSF (Sigma, Cat. No. 10837091001). 50 μL lysis buffer was used to lyse each pellet containing 5×10E5-1×10E6 live cells extracted from tumors. Lysates were centrifuged for 10 mins at 20,817×g and lysate supernatants were saved for further analysis. Protein levels were determined by the BCA Assay performed according to manufacturer's protocol (EMD Millipore, Cat. No. 71285-3). Samples were evaluated by Western blot analysis on the Jess Platform (ProteinSimple). Lysates were diluted with complete lysis buffer (as described above) and 5 μg of total proteins were loaded onto each capillary. Samples were prepared using the ProteinSimple EZ Standard Pack 1 (Cat. No. PS-ST01EZ-8; containing tubes with powdered (5×) Fluorescent Master Mix, DTT, and biotinylated ladder) and run using the ProteinSimple 25-Capillary Cartridge kit (Cat. No. SM-W004; containing 25-capillary cartridge Wash reagent, and 10× Sample Buffer reagent), the ProteinSimple Anti-Rabbit HRP Detection Module for Jess (Cat. No. DM-001; containing Antibody Diluent, anti-rabbit secondary antibody, Luminol-S, Peroxide, and Streptavidin-HRP), and the ProteinSimple Anti-Mouse NIR Detection Module for Jess (Cat. No. DM-009; containing Antibody Diluent, anti-mouse NIR secondary antibody, and Streptavidin-NIR) as the following describes. The DTT was reconstituted with 40 μL water to make a 400 mM solution, 20 μL of the DTT solution plus 20 μL of 10× Sample Buffer were added to reconstitute the 5× Fluorescent Master Mix, and 20 μL of H2O was used to reconstitute the biotinylated ladder. For each sample, lysate (4 μL) was combined with 5× Fluorescent Master Mix (1 μL) and heated at 95° C. for 5 minutes. Samples were cooled and stored on ice. Primary antibody solution was made using anti-SMARCA2 antibody (Abcam, Cat. No. 240648, 1:10) and anti-beta-Actin antibody (Cell Signaling Technology, Cat. No. 3700S, 1:25) in antibody diluent. The 25-capillary cartridges were prepared per standard ProteinSimple protocol with each sample in a column. For the biotinylated ladder in column 1, the following were added: 5 µL of ladder sample in Row A, 10 μL of antibody diluent in Rows B and C, 10 μL of Streptavidin-NIR in Row D, and 15 μL of a 50:50 Luminol-s/Peroxide solution in Row E. For each test sample (columns 2-25), the following were added per column: 5 μL of sample in Row A, 10 μL of antibody diluent in Row B, 10 μL of primary antibody solution in Row C, 10 μL of secondary antibody in Row D, and 15 μL of a 50:50 Luminol-S/Peroxide solution in Row E. 500 μL wash buffer was added to the wash buffer wells in the cartridge and cartridge was spun at 1000×g for 5 minutes prior to loading into the Jess. Samples were run using the Chemiluminescence and Fluorescence immunoassays in the ProteinSimple Compass for SimpleWestern program (version 5.0.0). After running, SMARCA2, actin, and background curves were identified in the Compass software; note that in the Compass software, the electropherograms are also visualized as bands for comparison with standard Western blot outputs. The electropherogram area reading for each sample curve was normalized to that of the corresponding actin curve per column following background (capillary background) subtraction using the following equation: […]
Following normalization, the percentage of SMARCA2 remaining per sample relative to the vehicle control was calculated as follows: […]

SMARCA4 = SMARCA4 (Homo sapiens, UniProt P51532); assay: Cellular degradation assay, SMARCA4 (Table 1)

Row | Structure (SMILES) | Dmax (%) SMARCA2 (SMARCA2; cellular degradation) [%] | Fold Selectivity SMARCA4/2 (SMARCA2) | DC50 (SMARCA2; read-out: DC50 (nM) SMARCA2, cellular degradation) [nM] | Dmax (%) SMARCA4 (SMARCA4) [%]
1 | O=C1CC[C@H](c2ccc(N3CCC(CN4CCC(NC(=O)C5(Oc6ccccc6)CCN(c6cnnc(-c7ccccc7O)c6)CC5)CC45CCC5)CC3)cc2)C(=O)N1 (stereo partly shown) | 79.63 | 1560 | 6.43 | 54.65
2 | O=C1CCC(c2ccc(N3CCN(C(=O)C4CCN(C(=O)C5(c6ccccc6)CCN(c6cnnc(-c7ccccc7O)c6)CC5)CC4)CC3)cc2)C(=O)N1 (stereo not shown) | 36.19 | 1 |  | 6.81
3 | O=C1CCC(c2ccc(N3CCN(C(=O)C4CC5(CCN(C(=O)C6(c7ccccc7)CCN(c7cnnc(-c8ccccc8O)c7)CC6)C5)C4)CC3)cc2)C(=O)N1 (stereo not shown) | 24.32 | 1 |  | 5.73
